Data taken from PubChem BioAssay (NCI).
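A five-concentration, 48-hour dose response in 96-well plates underlies each endpoint, interpolated linearly between surrounding concentrations. GI50: concentration for 50% inhibition of growth. TGI marks complete inhibition of growth.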

Columns and labels:
Experiment in all cases: NCI tumour cell line growth inhibition, 48 h
HS 578T breast = test system: HS 578T breast
SK-MEL-28 melanoma = test system: SK-MEL-28 melanoma
786-0 renal = test system: 786-0 renal
HOP-62 NSCLC = test system: HOP-62 NSCLC
OVCAR-8 ovarian = test system: OVCAR-8 ovarian
SNB-75 CNS = test system: SNB-75 CNS
SK-MEL-5 melanoma = test system: SK-MEL-5 melanoma
MDA-MB-231 breast = test system: MDA-MB-231 breast
TK-10 renal = test system: TK-10 renal
DU-145 prostate = test system: DU-145 prostate
BT-549 breast = test system: BT-549 breast
OVCAR-5 ovarian = test system: OVCAR-5 ovarian
NCI-H23 lung = test system: NCI-H23 lung
HOP-92 NSCLC = test system: HOP-92 NSCLC
A549 NSCLC = test system: A549 NSCLC
NCI-H226 lung = test system: NCI-H226 lung
HCC-2998 colon = test system: HCC-2998 colon
NCI-H460 lung = test system: NCI-H460 lung
HCT-15 colon = test system: HCT-15 colon
OVCAR-3 ovarian = test system: OVCAR-3 ovarian
CAKI-1 renal = test system: CAKI-1 renal
SF-539 CNS = test system: SF-539 CNS
SK-OV-3 ovarian = test system: SK-OV-3 ovarian
ACHN renal = test system: ACHN renal
M14 melanoma = test system: M14 melanoma
CCRF-CEM leukemia = test system: CCRF-CEM leukemia
MOLT-4 leukemia = test system: MOLT-4 leukemia
SW-620 colon = test system: SW-620 colon
K-562 leukemia = test system: K-562 leukemia

SMILES: CCN(CC)[P+](c1ccc(OC)cc1OC)(N(CC)CC)N(CC)CC
- GI50 (HS 578T breast): 3.6 µM
- TGI (HS 578T breast): 73.4 µM
- GI50 (SK-MEL-28 melanoma): 6.5 µM
- TGI (SK-MEL-28 melanoma): > 100 µM
- GI50 (786-0 renal): 13.5 µM
- TGI (786-0 renal): > 100 µM
- GI50 (HOP-62 NSCLC): 4.75 µM
- TGI (HOP-62 NSCLC): > 100 µM
- GI50 (OVCAR-8 ovarian): 2 µM
- TGI (OVCAR-8 ovarian): 23.9 µM
- GI50 (SNB-75 CNS): 1.84 µM
- TGI (SNB-75 CNS): 9.94 µM
- GI50 (SK-MEL-5 melanoma): 0.927 µM
- TGI (SK-MEL-5 melanoma): 6.47 µM
- GI50 (MDA-MB-231 breast): 4.28 µM
- TGI (MDA-MB-231 breast): > 100 µM
- GI50 (TK-10 renal): 3.89 µM
- TGI (TK-10 renal): > 100 µM
- GI50 (DU-145 prostate): 4.08 µM
- TGI (DU-145 prostate): > 100 µM
- GI50 (BT-549 breast): 4.44 µM
- TGI (BT-549 breast): > 100 µM
- GI50 (OVCAR-5 ovarian): 10.9 µM
- TGI (OVCAR-5 ovarian): > 100 µM
- GI50 (NCI-H23 lung): 3.52 µM
- TGI (NCI-H23 lung): > 100 µM
- GI50 (HOP-92 NSCLC): 1.05 µM
- TGI (HOP-92 NSCLC): 6.81 µM
- GI50 (A549 NSCLC): 4.34 µM
- TGI (A549 NSCLC): > 100 µM
- GI50 (NCI-H226 lung): 5.99 µM
- TGI (NCI-H226 lung): > 100 µM
- GI50 (HCC-2998 colon): 3.35 µM
- TGI (HCC-2998 colon): > 100 µM
- GI50 (NCI-H460 lung): 1.76 µM
- TGI (NCI-H460 lung): 27.7 µM
- GI50 (HCT-15 colon): 37.9 µM
- TGI (HCT-15 colon): > 100 µM
- GI50 (OVCAR-3 ovarian): 1.46 µM
- TGI (OVCAR-3 ovarian): 45.7 µM
- GI50 (CAKI-1 renal): 26.4 µM
- TGI (CAKI-1 renal): > 100 µM
- GI50 (SF-539 CNS): 5.67 µM
- TGI (SF-539 CNS): > 100 µM
- GI50 (SK-OV-3 ovarian): 5.79 µM
- TGI (SK-OV-3 ovarian): 88 µM
- GI50 (ACHN renal): 20.7 µM
- TGI (ACHN renal): > 100 µM
- GI50 (M14 melanoma): 4.15 µM
- TGI (M14 melanoma): > 100 µM
- GI50 (CCRF-CEM leukemia): 5.41 µM
- TGI (CCRF-CEM leukemia): > 100 µM
- GI50 (MOLT-4 leukemia): 7.43 µM
- TGI (MOLT-4 leukemia): > 100 µM
- GI50 (SW-620 colon): 3.11 µM
- TGI (SW-620 colon): > 100 µM
- GI50 (K-562 leukemia): 1.91 µM
- TGI (K-562 leukemia): > 100 µM
